Test results from patent US11485732B2, “Compounds and uses thereof” (Foghorn Therapeutics Inc., priority 2020, dated 2022).

Chains of the proteins cited; added tags and fusions are not shown.
UniProt P51532, whole entry: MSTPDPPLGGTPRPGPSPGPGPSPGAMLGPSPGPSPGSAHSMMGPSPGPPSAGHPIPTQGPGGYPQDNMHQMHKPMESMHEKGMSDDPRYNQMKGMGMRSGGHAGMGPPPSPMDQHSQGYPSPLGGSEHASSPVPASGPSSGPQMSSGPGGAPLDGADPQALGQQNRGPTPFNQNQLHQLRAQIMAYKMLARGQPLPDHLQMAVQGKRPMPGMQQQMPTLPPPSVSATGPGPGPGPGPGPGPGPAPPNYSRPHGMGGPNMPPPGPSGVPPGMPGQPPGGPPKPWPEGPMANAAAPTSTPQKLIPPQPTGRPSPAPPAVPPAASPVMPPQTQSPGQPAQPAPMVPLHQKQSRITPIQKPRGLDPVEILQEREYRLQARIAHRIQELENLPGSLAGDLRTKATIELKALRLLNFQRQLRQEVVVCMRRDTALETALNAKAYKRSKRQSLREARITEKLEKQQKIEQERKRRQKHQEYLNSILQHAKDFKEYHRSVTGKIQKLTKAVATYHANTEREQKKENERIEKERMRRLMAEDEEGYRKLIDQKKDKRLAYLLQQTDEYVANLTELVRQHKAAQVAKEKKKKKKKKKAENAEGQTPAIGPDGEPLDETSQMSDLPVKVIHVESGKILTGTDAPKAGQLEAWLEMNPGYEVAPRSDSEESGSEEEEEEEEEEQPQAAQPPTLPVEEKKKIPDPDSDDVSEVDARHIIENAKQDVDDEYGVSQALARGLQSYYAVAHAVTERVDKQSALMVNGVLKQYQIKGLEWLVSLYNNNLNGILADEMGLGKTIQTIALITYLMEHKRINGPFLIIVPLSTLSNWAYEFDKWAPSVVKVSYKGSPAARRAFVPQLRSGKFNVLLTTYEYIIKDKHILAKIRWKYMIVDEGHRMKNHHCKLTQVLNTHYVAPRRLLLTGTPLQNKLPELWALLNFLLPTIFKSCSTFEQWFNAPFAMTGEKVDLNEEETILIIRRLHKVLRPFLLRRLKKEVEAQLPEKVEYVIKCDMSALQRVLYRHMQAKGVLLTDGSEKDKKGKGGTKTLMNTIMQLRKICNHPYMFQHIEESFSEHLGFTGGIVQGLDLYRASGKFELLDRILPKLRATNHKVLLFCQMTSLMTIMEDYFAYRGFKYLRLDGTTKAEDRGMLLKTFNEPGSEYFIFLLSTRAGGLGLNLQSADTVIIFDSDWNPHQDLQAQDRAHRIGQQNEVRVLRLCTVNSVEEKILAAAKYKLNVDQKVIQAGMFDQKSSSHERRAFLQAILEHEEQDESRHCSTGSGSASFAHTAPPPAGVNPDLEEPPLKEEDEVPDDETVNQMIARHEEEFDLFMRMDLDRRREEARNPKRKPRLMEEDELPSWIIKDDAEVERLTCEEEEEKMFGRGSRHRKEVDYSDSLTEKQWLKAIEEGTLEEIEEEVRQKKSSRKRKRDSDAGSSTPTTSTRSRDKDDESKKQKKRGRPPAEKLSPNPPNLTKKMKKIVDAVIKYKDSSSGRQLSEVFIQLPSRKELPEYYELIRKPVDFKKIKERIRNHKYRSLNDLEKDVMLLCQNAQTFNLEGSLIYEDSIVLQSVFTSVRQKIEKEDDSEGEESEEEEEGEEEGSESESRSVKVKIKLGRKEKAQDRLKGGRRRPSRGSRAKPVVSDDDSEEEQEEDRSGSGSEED

Assays:
BRG1 = BRG1 (Homo sapiens, UniProt P51532); assay: biochemical
[1] = test system: uveal melanoma, hematologic cancer, prostate cancer, breast cancer, and Ewing's sarcoma cell lines versus the other tested cell lines
[2] = test system: Uveal melanoma cell lines, 92-1 or MP41; assay: 3-day growth inhibition compared with clinical PKC and MEK inhibitors (Example 8); type: cell-based; settings: 0 to 10 μM, 3 days

| Structure (SMILES) | IC50 (BRG1) [nM] | further results |
| --- | --- | --- |
| [2H]C([2H])([2H])OC([2H])([2H])[C@H](NC(=O)c1ccn(S(C)(=O)=O)c1)C(=O)Nc1nc(-c2cccc(N3C[C@@H](C)O[C@@H](C)C3)n2)cs1 [N—((S)-1-((4-(6-(cis-2,6-dimethylmorpholino)pyridin-2-yl)thiazol-2-yl)amino)-3-(methoxy-d3)-1-oxopropan-2-yl-3,3-d2)-1-(methylsulfonyl)-1H-pyrrole-3-carboxamide] | 7.4 | – |
| COC[C@H](NC(=O)c1ccn(S(C)(=O)=O)c1)C(=O)Nc1nc(-c2cccc(N3C[C@@H](C)O[C@@H](C)C3)n2)cs1 [N—((S)-1-((4-(6-(cis-2,6-dimethylmorpholino)pyridin-2-yl)thiazol-2-yl)amino)-3-methoxy-1-oxopropan-2-yl)-1-(methylsulfonyl)-1H-pyrrole-3-carboxamide] | 5.2 | – |
| [2H]C([2H])([2H])OC([2H])([2H])[C@@H](NC(=O)c1ccn(S(C)(=O)=O)c1)C(=O)Nc1nc(-c2cccc(N3C[C@@H](C)O[C@@H](C)C3)n2)cs1 [N—((R)-1-((4-(6-(cis-2,6-dimethylmorpholino)pyridin-2-yl)thiazol-2-yl)amino)-3-(methoxy-d3)-1-oxopropan-2-yl-3,3-d2)-1-(methylsulfonyl)-1H-pyrrole-3-carboxamide] | 777 | – |
| CSCC[C@H](NC(=O)c1ccn(S(C)(=O)=O)c1)C(=O)Nc1nc(-c2cccc(-c3ccncc3)c2)cs1 [Compound B] | – | duration of growth inhibition [1]: maintained through day 7 |
| CSCC[C@H](NC(=O)c1ccc(N)cc1)C(=O)Nc1nc(-c2cccc(-c3ccncc3)c2)cs1 [Compound A] | – | growth inhibition relative to clinical PKC (LXS196) and MEK (Selumetinib) inhibitors (FIG. 2, FIG. 3) [2]: comparable growth inhibition of uveal melanoma cells as the clinical PKC and MEK inhibitors; onset of inhibition relative to clinical PKC and MEK inhibitors [2]: faster onset of inhibition than the clinical PKC and MEK inhibitors |
